Assay: Peptide reactivity with cysteine (N-acetyl cysteine methyl ester), LC/MS
Conditions: 1 mM N-acetyl cysteine methyl ester, within 2.5 h, room temperature, HEPES 25 mM pH 7.5, 100 mM NaCl, 10 mM MgCl2

peptide reacted with cysteine: > 50%
Substance: Ac-RAH-(pT)-(mC)-PASLQ-NH2 [Peptide 8]

— PMC10692228, “A simple method for developing lysine targeted covalent protein reagents” (Nature Communications, 2023)
